The target in this assay is Nitric oxide synthase 1 (Rattus norvegicus) (UniProt P29476). The assay can be described thus: Effect on the activity of recombinant rat neuronal nitric oxide synthase as determined with radioactive L-arginine/L-citruline conversion assay. The arrangement: concentration or dose not given beside the values. The conditions noted are these: concentration not given here.

Sequences of proteins named here, by UniProt entry; tags and fusion partners are left off.
UniProt P29476, whole entry, looked up: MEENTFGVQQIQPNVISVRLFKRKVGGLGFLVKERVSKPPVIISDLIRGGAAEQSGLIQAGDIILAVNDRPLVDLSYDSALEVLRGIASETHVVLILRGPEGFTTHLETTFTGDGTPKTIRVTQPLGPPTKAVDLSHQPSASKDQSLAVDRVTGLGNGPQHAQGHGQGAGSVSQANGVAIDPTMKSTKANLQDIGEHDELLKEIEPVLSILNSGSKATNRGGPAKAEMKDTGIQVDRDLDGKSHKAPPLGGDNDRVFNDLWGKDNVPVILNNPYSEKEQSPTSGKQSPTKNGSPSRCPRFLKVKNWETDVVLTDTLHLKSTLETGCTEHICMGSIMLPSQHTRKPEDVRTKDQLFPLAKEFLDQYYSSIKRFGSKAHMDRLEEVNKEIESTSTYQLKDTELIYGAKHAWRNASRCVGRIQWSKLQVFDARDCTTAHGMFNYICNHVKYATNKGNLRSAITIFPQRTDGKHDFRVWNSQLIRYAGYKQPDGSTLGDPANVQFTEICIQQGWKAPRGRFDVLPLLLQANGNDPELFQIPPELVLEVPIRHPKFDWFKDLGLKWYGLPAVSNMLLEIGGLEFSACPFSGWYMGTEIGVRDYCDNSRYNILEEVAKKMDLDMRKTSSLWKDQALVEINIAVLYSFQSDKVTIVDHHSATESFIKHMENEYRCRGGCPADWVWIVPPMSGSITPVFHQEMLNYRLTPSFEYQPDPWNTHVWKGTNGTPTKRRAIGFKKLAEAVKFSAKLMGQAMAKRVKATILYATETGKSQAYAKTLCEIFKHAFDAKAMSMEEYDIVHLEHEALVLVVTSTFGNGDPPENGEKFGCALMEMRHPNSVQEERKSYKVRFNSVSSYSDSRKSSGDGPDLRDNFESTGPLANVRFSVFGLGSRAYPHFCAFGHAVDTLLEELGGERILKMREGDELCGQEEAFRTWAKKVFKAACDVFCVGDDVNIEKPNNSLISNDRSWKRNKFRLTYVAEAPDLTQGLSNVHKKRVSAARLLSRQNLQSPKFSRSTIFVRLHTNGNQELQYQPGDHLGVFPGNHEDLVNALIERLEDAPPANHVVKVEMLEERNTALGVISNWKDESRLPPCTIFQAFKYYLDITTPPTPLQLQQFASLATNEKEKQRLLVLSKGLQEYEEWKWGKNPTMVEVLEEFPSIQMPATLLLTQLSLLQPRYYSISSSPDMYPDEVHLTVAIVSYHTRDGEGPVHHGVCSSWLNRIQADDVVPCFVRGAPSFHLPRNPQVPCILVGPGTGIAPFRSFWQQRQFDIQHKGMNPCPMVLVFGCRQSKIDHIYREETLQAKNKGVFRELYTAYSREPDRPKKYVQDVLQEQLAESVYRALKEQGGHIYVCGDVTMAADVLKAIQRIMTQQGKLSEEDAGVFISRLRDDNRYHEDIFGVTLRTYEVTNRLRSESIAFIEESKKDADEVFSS

The values below come from ChEMBL document CHEMBL1135086.

Structures are written as SMILES.

Turning to `O=[N+]([O-])/C=C/c1cc(O)c(O)cc1[N+](=O)[O-]`, the inhibition stood at 55%.
